According to patent US20240382463A1, “Composition Comprising HDAC Inhibitor and Immune Checkpoin Inhibitor and Methods For Using the Same” (Avstera Therapeutics Corp., priority 2023, published 2024):

Assays:
SM1 melanoma tumors = assay: SM1 melanoma model, in vivo tumor growth; parameters: species or system C57BL/6 mice
Experimental: In vivo tumor growth: Analysis of tumor growth using the murine SM1 melanoma model were performed in accordance with IACUC guidelines at Georgetown University. Murine melanoma tumors were established by implanting 0.75×10^6 SM1 cells in the right flank area of 6-8 weeks-old female C57BL/6 mice. When the tumors were palpable (5×5 mm), mice were randomized into treatment groups, and AVS100 and vehicle control were administered by oral gavage daily in a suspension containing PEG-6000, Microcrystalline Cellulose, Corn Starch, Silicon Dioxide, Magnesium Stearate and Sterile water. Anti-PD1 or isotype control (BE0146-CUST and BE0089-CUST, Bio X cell) were injected i.p. […] The body weights of animals were recorded once a week using a portable scale to monitor general health. […] The mapping and quantification of the T-cell repertoire was provided by the Azenta bioinformatics pipeline, which mapped the reads to the appropriate V(D)J genes. The clones that were identified were ranked (in decreasing order) by frequency, and the Pielou index was calculated for each condition and replicate as follows: […]

[1] = test system: murine bone marrow-derived macrophages (BMDM); conditions: FACs

`O=C(NCCc1cc(C(=O)NO)no1)c1ccc(Cl)c(Cl)c1` [AVS100, 5-(2-(3,4-dichlorobenzamido)ethyl)-N-hydroxyisoxazole-3-carboxamide] was tested, and the “M1/M2 ratio of TAMs” value (SM1 melanoma tumors; CD80 / CD206, FACs) was “significant increase”, the CD8/CD4 ratio (SM1 melanoma tumors; in control as well as in anti-PD1 groups) was “significant increase” and the “generation of CD80hi F4/80+ CD11b+ M1 macrophages” value [1] was “normal generation”. For the same compound, the “generation of CD206hi F4/80+ CD11b+ M2 macrophages” value [1] was “complete blockade”.
